Results published in patent publication US11186582B2, “Substituted [1,2,4]triazolo[1,5-a]pyrimidin-7-yl compounds as PDE2 inhibitors” (DART NEUROSCIENCE (CAYMAN) LTD., priority 2014, dated 2021).

The chains behind the UniProt entries cited, without tags or fusion partners. Residues count along the entry.
UniProt O00408, 2-941: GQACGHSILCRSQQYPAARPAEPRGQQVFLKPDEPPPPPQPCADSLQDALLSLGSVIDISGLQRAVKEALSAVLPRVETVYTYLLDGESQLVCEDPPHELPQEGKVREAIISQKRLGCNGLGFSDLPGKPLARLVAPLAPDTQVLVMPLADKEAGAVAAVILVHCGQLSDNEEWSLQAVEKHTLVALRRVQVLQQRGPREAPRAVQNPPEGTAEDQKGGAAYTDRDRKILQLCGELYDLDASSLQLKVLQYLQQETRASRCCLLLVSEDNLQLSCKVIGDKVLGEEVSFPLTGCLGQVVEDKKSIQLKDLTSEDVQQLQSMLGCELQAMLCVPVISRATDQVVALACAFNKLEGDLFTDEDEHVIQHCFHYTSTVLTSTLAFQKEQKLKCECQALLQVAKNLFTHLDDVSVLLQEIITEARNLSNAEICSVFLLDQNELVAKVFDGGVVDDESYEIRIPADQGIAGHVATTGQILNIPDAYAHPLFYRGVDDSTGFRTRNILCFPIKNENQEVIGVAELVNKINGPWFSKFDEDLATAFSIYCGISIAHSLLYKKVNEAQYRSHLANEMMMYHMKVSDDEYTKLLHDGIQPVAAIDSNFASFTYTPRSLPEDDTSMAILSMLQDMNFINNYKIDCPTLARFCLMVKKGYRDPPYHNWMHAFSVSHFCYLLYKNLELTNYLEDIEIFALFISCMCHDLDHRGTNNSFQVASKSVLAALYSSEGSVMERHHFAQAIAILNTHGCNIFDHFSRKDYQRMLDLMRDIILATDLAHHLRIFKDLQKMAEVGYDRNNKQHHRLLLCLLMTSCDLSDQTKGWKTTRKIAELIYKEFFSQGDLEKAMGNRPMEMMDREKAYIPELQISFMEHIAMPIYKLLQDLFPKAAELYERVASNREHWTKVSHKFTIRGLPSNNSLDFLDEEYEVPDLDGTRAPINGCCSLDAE

target: FLAG-tagged PDE2A1 (amino acids 2-941) (Homo sapiens (Human), UniProt O00408); test: IMAP TR-FRET PDE2A phosphodiesterase enzymatic assay; conditions: not given

**Q.** `Cc1cc(C2CN(C(=O)c3ccc(Cl)cc3)CCO2)n2ncnc2n1` (stereo not shown) [Example 219, 4-[(4-Chlorophenyl)carbonyl]-2-{5-methyl-[1,2,4]triazolo[1,5-a]pyrimidin-7-yl}morpholine] was tested. Which IC50 did it give?
**A.** 0.1 to 1 µM

**Q.** How did the IC50 turn out when `Cc1cc(C2CCCN(C(=O)c3cc(F)ccc3Cl)C2)n2ncnc2n1` (stereo not shown) [Example 482, 1-[(2-Chloro-5-fluorophenyl)carbonyl]-3-{5-methyl-[1,2,4]triazolo[1,5-a]pyrimidin-7-yl}piperidine] was run?
**A.** 1 to 10 µM

**Q.** With `Cc1cc(C2CN(C(=O)c3cccc(OC(F)(F)F)c3)CCO2)n2ncnc2n1` (stereo not shown) [Example 221, 2-{5-Methyl-[1,2,4]triazolo[1,5-a]pyrimidin-7-yl}-4-{[3-(trifluoromethoxy)phenyl]carbonyl}morpholine] as the compound, how does the IC50 read?
**A.** 1 to 10 µM

**Q.** For `Cc1cc(C2CCCN(Cc3ccc(-c4ccc(F)cc4Cl)cc3F)C2)n2ncnc2n1` (stereo not shown) [Example 32, 1-{[4-(2-Chloro-4-fluorophenyl)-2-fluorophenyl]methyl}-3-{5-methyl-[1,2,4]triazolo[1,5-a]pyrimidin-7-yl}piperidine], which IC50 is on record?
**A.** 1 to 10 µM

**Q.** With `Cc1ccc(C)c(C(=O)N2CCCC(c3cc(C)nc4ncnn34)C2)c1` (stereo not shown) [Example 466, 1-[(2,5-Dimethylphenyl)carbonyl]-3-{5-methyl-[1,2,4]triazolo[1,5-a]pyrimidin-7-yl}piperidine] as the compound, how does the IC50 read?
**A.** 0.1 to 1 µM

**Q.** How did the IC50 turn out when `Cc1cc(C2CCCN(Cc3cccc(-c4ccc(F)cc4Cl)c3)C2)n2ncnc2n1` (stereo not shown) [Example 35, 1-{[3-(2-Chloro-4-fluorophenyl)phenyl]methyl}-3-{5-methyl-[1,2,4]triazolo[1,5-a]pyrimidin-7-yl}piperidine] was run?
**A.** 1 to 10 µM

**Q.** Which IC50 does the source give for `COc1ccc(F)c(C(=O)N2CCCC(c3cc(C)nc4ncnn34)C2)c1` (stereo not shown) [Example 456, 1-[(2-Fluoro-5-methoxyphenyl)carbonyl]-3-{5-methyl-[1,2,4]triazolo[1,5-a]pyrimidin-7-yl}piperidine] here?
**A.** 0.1 to 1 µM

**Q.** With `Cc1cc(C2CCCN(Cc3cc(-c4ccc(F)cc4Cl)ccc3F)C2)n2ncnc2n1` (stereo not shown) [Example 25, 1-{[5-(2-Chloro-4-fluorophenyl)-2-fluorophenyl]methyl}-3-{5-methyl-[1,2,4]triazolo[1,5-a]pyrimidin-7-yl}piperidine] as the compound, how does the IC50 read?
**A.** 1 to 10 µM

**Q.** With `COc1cc(CN2CCCC(c3cc(C)nc4ncnn34)C2)ccc1C` (stereo not shown) [Example 63, 1-[(3-Methoxy-4-methylphenyl)methyl]-3-{5-methyl-[1,2,4]triazolo[1,5-a]pyrimidin-7-yl}piperidine] as the compound, how does the IC50 read?
**A.** > 10 µM

**Q.** For `Cc1cc([C@@H]2CN(C(=O)c3cc(Cl)cc(Cl)c3)CCO2)n2ncnc2n1` [Example 252, (2S)-4-[(3,5-Dichlorophenyl)carbonyl]-2-{5-methyl-[1,2,4]triazolo[1,5-a]pyrimidin-7-yl}morpholine], which IC50 is on record?
**A.** 0.1 to 1 µM

**Q.** With `Cc1cc(C2CCCN(Cc3ccc(C(F)(F)F)cc3)C2)n2ncnc2n1` (stereo not shown) [Example 106, 3-{5-Methyl-[1,2,4]triazolo[1,5-a]pyrimidin-7-yl}-1-{[4-(trifluoromethyl)phenyl]methyl}piperidine] as the compound, how does the IC50 read?
**A.** 0.1 to 1 µM

**Q.** How did the IC50 turn out when `Cc1cc(C2CCCN(C(=O)c3ccccc3C#N)C2)n2ncnc2n1` (stereo not shown) [Example 476, 2-[(3-{5-Methyl-[1,2,4]triazolo[1,5-a]pyrimidin-7-yl}piperidin-1-yl)carbonyl]benzonitrile] was run?
**A.** 1 to 10 µM

**Q.** With `Cc1cc(C2CCCN(C(=O)c3ccc(F)cc3C)C2)n2ncnc2n1` (stereo not shown) [Example 484, 1-[(4-Fluoro-2-methylphenyl)carbonyl]-3-{5-methyl-[1,2,4]triazolo[1,5-a]pyrimidin-7-yl}piperidine] as the compound, how does the IC50 read?
**A.** 1 to 10 µM

**Q.** `COc1cc(C)ccc1C(=O)N1CC(c2cc(C)nc3ncnn23)CC(F)(F)C1` (stereo not shown) [Example 506, 3,3-Difluoro-1-(2-methoxy-4-methylbenzoyl)-5-{5-methyl-[1,2,4]triazolo[1,5-a]pyrimidin-7-yl}piperidine] was tested. Which IC50 did it give?
**A.** 0.1 to 1 µM

**Q.** How did the IC50 turn out when `Cc1cc(C2CCCN(Cc3ccc(-c4ccncc4)cc3)C2)n2ncnc2n1` (stereo not shown) [Example 31, 4-{4-[(3-{5-Methyl-[1,2,4]triazolo[1,5-a]pyrimidin-7-yl}piperidin-1-yl)methyl]phenyl}pyridine] was run?
**A.** 0.1 to 1 µM

**Q.** For `Cc1cc(C2CCCN(Cc3ccc(-c4cccc(Cl)c4)cc3F)C2)n2ncnc2n1` (stereo not shown) [Example 21, 1-{[4-(3-Chlorophenyl)-2-fluorophenyl]methyl}-3-{5-methyl-[1,2,4]triazolo[1,5-a]pyrimidin-7-yl}piperidine], which IC50 is on record?
**A.** 0.1 to 1 µM

**Q.** Which IC50 does the source give for `Cc1cc(C2CN(C(=O)c3cccc(C(C)C)c3)CCO2)n2ncnc2n1` (stereo not shown) [Example 561, 2-{5-Methyl-[1,2,4]triazolo[1,5-a]pyrimidin-7-yl}-4-[3-(propan-2-yl)benzoyl]morpholine] here?
**A.** 0.1 to 1 µM

**Q.** `Cc1ccc(F)c(C(=O)N2CCOC(c3cc(C)nc4ncnn34)C2)c1` (stereo not shown) [Example 554, 4-(2-Fluoro-5-methylbenzoyl)-2-{5-methyl-[1,2,4]triazolo[1,5-a]pyrimidin-7-yl}morpholine] was tested. Which IC50 did it give?
**A.** 1 to 10 µM

**Q.** With `Cc1cc(C2CCCN(Cc3c(C)cccc3Cl)C2)n2ncnc2n1` (stereo not shown) [Example 74, 1-[(2-Chloro-6-methylphenyl)methyl]-3-{5-methyl-[1,2,4]triazolo[1,5-a]pyrimidin-7-yl}piperidine] as the compound, how does the IC50 read?
**A.** > 10 µM

**Q.** For `Cc1cc(C2CCCN(Cc3cccc(OC(F)F)c3)C2)n2ncnc2n1` (stereo not shown) [Example 128, 1-{[3-(Difluoromethoxy)phenyl]methyl}-3-{5-methyl-[1,2,4]triazolo[1,5-a]pyrimidin-7-yl}piperidine], which IC50 is on record?
**A.** > 10 µM

**Q.** With `Cc1cc(C2CCCN(C(=O)c3cc(Cl)ccc3Cl)C2)n2ncnc2n1` (stereo not shown) [Example 438, 1-[(2,5-Dichlorophenyl)carbonyl]-3-{5-methyl-[1,2,4]triazolo[1,5-a]pyrimidin-7-yl}piperidine] as the compound, how does the IC50 read?
**A.** 0.1 to 1 µM

**Q.** How did the IC50 turn out when `COc1ccc(C(=O)N2CCOC(c3cc(C)nc4ncnn34)C2)cc1` (stereo not shown) [Example 217, 4-[(4-Methoxyphenyl)carbonyl]-2-{5-methyl-[1,2,4]triazolo[1,5-a]pyrimidin-7-yl}morpholine] was run?
**A.** 0.1 to 1 µM

**Q.** For `Cc1cccc(CN2CCCC(c3cc(C)nc4ncnn34)C2)c1` (stereo not shown) [Example 101, 3-{5-Methyl-[1,2,4]triazolo[1,5-a]pyrimidin-7-yl}-1-[(3-methylphenyl)methyl]piperidine], which IC50 is on record?
**A.** 1 to 10 µM

**Q.** For `Cc1cc(C2CCCN(Cc3cccc(-c4ccc(Cl)cc4)c3)C2)n2ncnc2n1` (stereo not shown) [Example 28, 1-{[3-(4-Chlorophenyl)phenyl]methyl}-3-{5-methyl-[1,2,4]triazolo[1,5-a]pyrimidin-7-yl}piperidine], which IC50 is on record?
**A.** 1 to 10 µM

**Q.** With `Cc1cc(C2CCCN(Cc3ccc(C4CC4)cc3)C2)n2ncnc2n1` (stereo not shown) [Example 151, 1-[(4-Cyclopropylphenyl)methyl]-3-{5-methyl-[1,2,4]triazolo[1,5-a]pyrimidin-7-yl}piperidine] as the compound, how does the IC50 read?
**A.** 1 to 10 µM

same assay, conditions: IMAP TR-FRET, 200 nM FAM-cAMP substrate, 11-point half-log dose-response

**Q.** With `COc1ccc(C(=O)N2CC(c3cc(C)nc4ncnn34)CC(F)(F)C2)cc1I` (stereo not shown) [Example 9, (3,3-Difluoro-5-(5-methyl-[1,2,4]triazolo[1,5-a]pyrimidin-7-yl)piperidin-1-yl)(3-iodo-4-methoxyphenyl)methanone] as the compound, how does the “PDE2 (pIC50)” value read?
**A.** >7

**Q.** For `Cc1cc(C2CN(C(=O)c3ccc4occc4c3)CCO2)n2ncnc2n1` (stereo not shown) [Example 534, 4-(1-Benzofuran-5-carbonyl)-2-{5-methyl-[1,2,4]triazolo[1,5-a]pyrimidin-7-yl}morpholine], which “PDE2 (pIC50)” value is on record?
**A.** >7

**Q.** Which “PDE2 (pIC50)” value does the source give for `Cc1cc(C2CN(C(=O)c3ccc(Cl)c(I)c3)CC(F)(F)C2)n2ncnc2n1` (stereo not shown) [Example 339, 1-[(4-Chloro-3-iodophenyl)carbonyl]-3,3-difluoro-5-{5-methyl-[1,2,4]triazolo[1,5-a]pyrimidin-7-yl}piperidine] here?
**A.** >7

**Q.** Which “PDE2 (pIC50)” value does the source give for `Cc1ccc(F)c(C(=O)N2CC(c3cc(C)nc4ncnn34)CC(F)(F)C2)c1` (stereo not shown) [Example 522, 3,3-Difluoro-1-(2-fluoro-5-methylbenzoyl)-5-{5-methyl-[1,2,4]triazolo[1,5-a]pyrimidin-7-yl}piperidine] here?
**A.** >7

**Q.** `Cc1cc([C@@H]2CN(C(=O)c3cc(Cl)c(F)c(Cl)c3)CC(F)(F)C2)n2ncnc2n1` [Example 313, (5S)-1-(3,5-Dichloro-4-fluorobenzoyl)-3,3-difluoro-5-{5-methyl-[1,2,4]triazolo[1,5-a]pyrimidin-7-yl}piperidine] was tested. Which “PDE2 (pIC50)” value did it give?
**A.** >7

**Q.** How did the “PDE2 (pIC50)” value turn out when `Cc1cc(C2CN(C(=O)c3cn4ccccc4n3)CC(F)(F)C2)n2ncnc2n1` (stereo not shown) [Example 509, 3,3-Difluoro-1-{imidazo[1,2-a]pyridine-2-carbonyl}-5-{5-methyl-[1,2,4]triazolo[1,5-a]pyrimidin-7-yl}piperidine] was run?
**A.** >7

**Q.** How did the “PDE2 (pIC50)” value turn out when `Cc1cc([C@@H]2CN(C(=O)c3ccc(Br)cc3)CC(F)(F)C2)n2ncnc2n1` [Example 281, (5S)-1-(4-Bromobenzoyl)-3,3-difluoro-5-{5-methyl-[1,2,4]triazolo[1,5-a]pyrimidin-7-yl}piperidine] was run?
**A.** >7

**Q.** With `Cc1cc(C2CN(C(=O)c3ccc(F)c(C)c3)CC(F)(F)C2)n2ncnc2n1` (stereo not shown) [Example 515, 3,3-Difluoro-1-(4-fluoro-3-methylbenzoyl)-5-{5-methyl-[1,2,4]triazolo[1,5-a]pyrimidin-7-yl}piperidine] as the compound, how does the “PDE2 (pIC50)” value read?
**A.** >7

**Q.** With `Cc1cc([C@H]2CCCN(Cc3ccc(C(F)(F)F)c(F)c3)C2)n2ncnc2n1` [Example 179, (3S)-1-{[3-Fluoro-4-(trifluoromethyl)phenyl]methyl}-3-{5-methyl-[1,2,4]triazolo[1,5-a]pyrimidin-7-yl}piperidine] as the compound, how does the “PDE2 (pIC50)” value read?
**A.** >7

**Q.** How did the “PDE2 (pIC50)” value turn out when `Cc1cc(C2CN(C(=O)c3cc4ccccc4n3C)CC(F)(F)C2)n2ncnc2n1` (stereo not shown) [Example 498, 2-(3,3-Difluoro-5-{5-methyl-[1,2,4]triazolo[1,5-a]pyrimidin-7-yl}piperidine-1-carbonyl)-1-methyl-1H-indole] was run?
**A.** >7

**Q.** Which “PDE2 (pIC50)” value does the source give for `Cc1cc(C2CCCN(C(=O)[C@H]3COc4ccccc4C3)C2)n2ncnc2n1` (stereo partly drawn) [Example 366, 1-[(3R)-3,4-Dihydro-2H-1-benzopyran-3-carbonyl]-3-{5-methyl-[1,2,4]triazolo[1,5-a]pyrimidin-7-yl}piperidine] here?
**A.** >7

**Q.** With `Cc1cc(C2CN(C(=O)c3cnc4ccccc4c3)CCO2)n2ncnc2n1` (stereo not shown) [Example 294, 3-[(2-{5-Methyl-[1,2,4]triazolo[1,5-a]pyrimidin-7-yl}morpholin-4-yl)carbonyl]quinoline] as the compound, how does the “PDE2 (pIC50)” value read?
**A.** >7
